Test [1] has as its target Bromodomain-containing protein 4 (Homo sapiens) (UniProt O60885). The test is described as follows: Inhibition of BRD4 in human MOLM-14 cells harboring FLT3-ITD mutant assessed as cell cycle arrest by measuring increase in cell population at G0/G1 phase at 1 to 5 uM measured after 24 hrs by propidium iodide staining based FACS analysis. As to conditions: dose microM 1-5, time 24.0 hrs.

The target is the same in test [2]. The test can be described thus: Inhibition of BRD4 in human MOLM-14 cells harboring FLT3-ITD mutant assessed as cell viability at 5 uM measured after 72 hrs by tryphan blue staining based assay relative to control.
Test [3] has the same target. The test can be described thus: Inhibition of BRD4 in human MOLM-14 cells harboring FLT3-ITD mutant assessed as reduction in cell proliferation at 1 to 5 uM after 72 hrs by tryphan blue staining based assay. As to conditions: dose microM 1-5, time 72.0 hrs.
The target is the same in test [4]. The test is described as follows: Inhibition of BRD4 in human HEL cells harboring JAK2 V617F mutant assessed as metabolic activity at 1 uM measured after 72 hrs by MTT assay relative to control. It counts as cell-based. Set-up: scale not given: the % may be the effect or the level left.
The target is the same in test [5]. The test can be described thus: Inhibition of BRD4 in human HEL cells harboring JAK2 V617F mutant assessed as cell cycle arrest by measuring decrease in cell population at S phase at 1 to 5 uM measured after 24 hrs by propidium iodide staining based FACS analysis. The conditions noted are these: dose microM 1-5, time 24.0 hrs. (A flow cytometer gives signals particle by particle.)

For test [6] the target is unchanged. The test can be described thus: Inhibition of BRD4 in human MOLM-14 cells harboring FLT3-ITD mutant assessed as cell cycle arrest by measuring decrease in cell population at S phase at 1 to 5 uM measured after 24 hrs by propidium iodide staining based FACS analysis. As to conditions: dose microM 1-5, time 24.0 hrs.
For test [7] the target is unchanged. The test is described as follows: Inhibition of BRD4 in human HEL cells harboring JAK2 V617F mutant assessed as cell cycle arrest by measuring increase in cell population at G0/G1 phase at 1 to 5 uM measured after 24 hrs by propidium iodide staining based FACS analysis. The conditions noted are these: dose microM 1-5, time 24.0 hrs.
Test [8] has the same target. The test is described as follows: Inhibition of BRD4 in human MOLM-14 cells harboring FLT3-ITD mutant assessed as metabolic activity at 1 uM measured after 72 hrs by MTT assay relative to control. It counts as cell-based. Set-up: scale not given: the % may be the effect or the level left.
Test [9] has the same target. The test is described as follows: Inhibition of BRD4 in human MOLM-14 cells harboring FLT3-ITD mutant assessed as cell cycle arrest by measuring increase in cell population at sub-G1 phase at 1 to 5 uM measured after 24 hrs by propidium iodide staining based FACS analysis. The conditions noted are these: dose microM 1-5, time 24.0 hrs.
Test [10] shares this target. The test is described as follows: Binding affinity to N-terminal His-tagged human recombinant BRD4 bromodomain 1 (44-170 residues) expressed in Escherichia coli assessed as change in melting temperature at 10 uM by BromoMELT assay.
Test [11] shares this target. The test can be described thus: Inhibition of BRD4 in human HEL cells harboring JAK2 V617F mutant assessed as cell cycle arrest by measuring increase in cell population at sub-G1 phase at 1 to 5 uM measured after 24 hrs by propidium iodide staining based FACS analysis. As to conditions: dose microM 1-5, time 24.0 hrs.
For test [12] the target is unchanged. The test can be described thus: Inhibition of BRD4 in human HEL cells harboring JAK2 V617F mutant assessed as cell viability at 5 uM measured after 72 hrs by tryphan blue staining based assay relative to control.
Test [13] shares this target. The test is described as follows: Inhibition of BRD4 in human HEL cells harboring JAK2 V617F mutant assessed as reduction in cell proliferation at 1 to 5 uM after 72 hrs by tryphan blue staining based assay. As to conditions: dose microM 1-5, time 72.0 hrs.

SMILES strings stand for the structures. The source made the active and inactive calls. No cut-off for these calls is given here.

A word on the ΔTm: it is the change in melting temperature against a reference sample.

`COc1ccccc1S(=O)(=O)Nc1ccc2c(c1)CN(C)C(=O)N2`: the inhibition result in [1], in test [3], in [5], in test [6], in [7] and in test [9] was “Active” each time. In addition, the inhibition entry in test [11] and in test [13] was “Active” throughout. In addition, the Activity in [2] turned out to be 85%; in test [4] it was 73%; in test [8], 80%; in [12], 85%. Further, in test [10], the shift in melting temperature (ΔTm) came out at 5 °C.

For the origin of these results see ChEMBL document CHEMBL4725438, “Chiral Analogues of PFI-1 as BET Inhibitors and Their Functional Role in Myeloid Malignancies” (ACS Med Chem Lett, 2020).
